By Ki is commonly meant a measure of affinity in units of concentration, obtained from inhibition or displacement.

Protein sequences, listed by entry. Tags and fused reporters are not part of them.
UniProt P31652, whole entry: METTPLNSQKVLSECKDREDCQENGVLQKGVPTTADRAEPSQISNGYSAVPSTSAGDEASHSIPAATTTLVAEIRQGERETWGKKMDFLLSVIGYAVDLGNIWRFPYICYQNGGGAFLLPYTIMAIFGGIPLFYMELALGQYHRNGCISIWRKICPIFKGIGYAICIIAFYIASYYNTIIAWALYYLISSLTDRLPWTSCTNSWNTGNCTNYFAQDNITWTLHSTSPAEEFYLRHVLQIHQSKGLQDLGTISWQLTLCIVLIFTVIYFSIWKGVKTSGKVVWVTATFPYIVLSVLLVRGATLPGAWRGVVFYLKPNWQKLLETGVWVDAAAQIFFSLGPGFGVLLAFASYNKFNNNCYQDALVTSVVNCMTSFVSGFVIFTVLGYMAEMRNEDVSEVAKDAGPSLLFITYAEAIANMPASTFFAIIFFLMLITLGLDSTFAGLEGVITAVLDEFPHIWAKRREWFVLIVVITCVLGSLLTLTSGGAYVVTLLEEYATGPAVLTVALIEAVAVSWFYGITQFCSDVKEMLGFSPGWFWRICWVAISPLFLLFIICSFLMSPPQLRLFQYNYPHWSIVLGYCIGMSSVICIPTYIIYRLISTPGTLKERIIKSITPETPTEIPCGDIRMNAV

The target of the experiment is T1, serotonin transporter (Rattus norvegicus, UniProt P31652).
T1 construct: frontal cortical membranes prepared from male Sprague-Dawley rats; from tissue; host or cells: frontal cortex membranes of male Sprague-Dawley rats
Kind of experiment: Serotonin transporter affinity, 3H-paroxetine binding to frontal cortical membranes. Set-up: species or system Sprague-Dawley rats. As to conditions: 3H-paroxetine 0.1 nM, head also allows % Inh. @.1 µM, read-out: ST (Ki, nM, % Inh. @.1 µM).

Take “[3-(1H-Indol-3-yl)-propyl]-4-benzyl-3,4-dihydro-2H-benzo[1,4]oxazin-2-yl-methyl)-amine [Example 6]”: the Ki was 23 nM.

These data come from patent EP1140925B1, “(3,4 DIHYDRO-2H-BENZO[1,4] OXAZINYL-METHYL)- 3-(1H-INDOL-3- YL)-ALKYL -AMINES” (Wyeth, priority 1999, dated 2000).
